Source: patent US5885592A, “Methods and pharmaceutical compositions for oral delivery of molecular iodine” (priority 1997, dated 1999)

System: horseradish peroxidase

horseradish peroxidase
decrease in the absorbance at 406 nm (1.0 mg/mL in SGF, one hour): 20%
reduction of the rate of catalyzed iodine formation (in SGF, end of the hour): approximately 33%
